Protein sequences, listed by entry. Tags and fused reporters are not part of them. Residues count along the entry.
UniProt P06276, 29-602: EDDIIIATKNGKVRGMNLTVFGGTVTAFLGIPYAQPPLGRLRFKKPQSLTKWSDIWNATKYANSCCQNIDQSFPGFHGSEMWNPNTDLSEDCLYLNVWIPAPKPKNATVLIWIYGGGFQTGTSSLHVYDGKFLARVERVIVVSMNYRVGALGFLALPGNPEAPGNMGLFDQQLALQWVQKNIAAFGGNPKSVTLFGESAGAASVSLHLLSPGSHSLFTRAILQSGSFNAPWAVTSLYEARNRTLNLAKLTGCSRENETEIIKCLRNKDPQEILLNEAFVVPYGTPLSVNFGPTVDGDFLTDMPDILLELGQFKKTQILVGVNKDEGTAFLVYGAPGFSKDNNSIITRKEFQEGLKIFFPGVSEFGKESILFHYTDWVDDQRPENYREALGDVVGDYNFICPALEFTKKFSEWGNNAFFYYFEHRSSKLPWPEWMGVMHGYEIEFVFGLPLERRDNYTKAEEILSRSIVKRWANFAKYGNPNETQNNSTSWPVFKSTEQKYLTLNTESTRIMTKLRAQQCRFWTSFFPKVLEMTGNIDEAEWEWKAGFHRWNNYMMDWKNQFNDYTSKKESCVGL

According to publication PMC6009985, “Structure–activity relationship investigation of benzamide and picolinamide derivatives containing dimethylamine side chain as acetylcholinesterase inhibitors” (Journal of Enzyme Inhibition and Medicinal Chemistry, 2017):

Target: BChE (Homo sapiens, UniProt P06276)
Assay type: biochemical
Conditions: Ellman method, 30 °C, 25 min, pH 8.0; mean ± SD
Experimental: AChE/BChE activity assays were carried out by Ellman method with slight modification. Each compound was dissolved in Tween 80 and diluted with water to various concentrations immediately before use. The assay solution which contained 40 μL AChE/BChE, 100 μL acetylthiocholine iodide/S-butyrylthiocholine iodide, 2.76 ml Na2HPO4/NaH2PO4 buffer (pH 8.0, 0.1 M), and 100 μL tested compound solution with different concentrations were incubated at 30 °C for 25 min. Then, the reaction was terminated with 100 μL 20% sodium dodecylsulphate (SDS), then 100 μL 10 mM […] (DTNB) as chromogenic agent was added into the mixture. […] The IC50 values were calculated by Bliss method and expressed as Mean ± SD of the replicates.

Q: With `CCN(C)C(=O)Oc1cccc([C@H](C)N(C)C)c1` [Rivastigmine, reference compound] as the molecule, how does the IC50 read?
A: 0.26 ± 0.08 µM
